Data on 1 compound can be found in patent publication US9809545B2, “Factor XIa inhibitors” (Merck Sharp & Dohme Corp., priority 2013, dated 2017).

The chains behind the UniProt entries cited, without tags or fusion partners. Residues count along the entry.
UniProt P03951, 388-625 limits assumed: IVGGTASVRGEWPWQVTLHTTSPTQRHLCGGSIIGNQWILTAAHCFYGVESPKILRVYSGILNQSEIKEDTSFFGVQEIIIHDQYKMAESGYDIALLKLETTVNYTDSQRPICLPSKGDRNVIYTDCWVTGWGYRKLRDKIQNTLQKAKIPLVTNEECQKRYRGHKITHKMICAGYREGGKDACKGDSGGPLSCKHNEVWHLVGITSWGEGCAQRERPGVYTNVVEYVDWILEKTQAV
UniProt P03951, 19-387 partner limits assumed: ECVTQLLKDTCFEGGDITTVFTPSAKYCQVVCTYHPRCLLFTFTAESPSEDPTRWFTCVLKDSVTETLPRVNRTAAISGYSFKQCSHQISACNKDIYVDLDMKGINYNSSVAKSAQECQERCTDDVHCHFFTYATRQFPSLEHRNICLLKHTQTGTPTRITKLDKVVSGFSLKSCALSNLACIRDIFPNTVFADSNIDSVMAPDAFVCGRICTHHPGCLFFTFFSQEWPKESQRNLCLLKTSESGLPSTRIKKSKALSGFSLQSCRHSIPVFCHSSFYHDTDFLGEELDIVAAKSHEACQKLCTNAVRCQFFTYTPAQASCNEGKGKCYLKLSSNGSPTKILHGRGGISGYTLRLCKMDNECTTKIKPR

In the assay the target is purified human Factor XIa (Homo sapiens (Human), UniProt P03951). The assay can be described thus: Factor XIa Assay. The assay is classed as biochemical. The note with it: read-out: hFXIa Ki; purified human Factor XIa 40 pM; substrate Z-Gly-Pro-Arg-AFC 100 μM; 50 mM HEPES pH 7.4.

As to `O=C(Nc1ccc2[nH]c(C(F)(F)F)nc2c1)C(Cc1ccccc1)n1ccc(-c2cc(Cl)ccc2-n2cnnn2)cc1=O` (stereo not shown), the Ki was less than 5 nM.

One may read the Ki as the dissociation constant of the complex between target and ligand, obtained from inhibition or displacement.
